miR-122 sensor = miR-122 Renilla sensor signal increase in Huh7, primary screen, miR-122 inhibitor project, cell-based, single point, plate reader; Huh7 miR-122 Renilla luciferase sensor, 48 h; neutral wells = 0, positive control = 100; activation (reporter increase), % at 12.5 µM; 340,000 tested, 0.3% active; AID 602342, 2012;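 active = mean replicate activation score at least 90 and every replicate individually at or above 90; inconclusive = only one of the two criteria met; inactive = neither criterion met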;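 note: higher luciferase means less miR-122 activity so hits act as miR-122 inhibitors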
PglD inh = C. jejuni PglD acetyltransferase inhibitors, primary screen, biochemical, DTNB colorimetric, single point | UDP-N-acetylbacillosamine N-acetyltransferase PglD (Campylobacter jejuni) | purified PglD enzyme, DTNB colorimetric CoA detection | inhibition, % at 12.5 µM | 360,000 tested, 0.098% active | AID 602405, 2012; in the data active = inhibition above about 16%, passing the limit was not always enough; inconclusive = no clear call, values can overlap the other calls
MITF TRPM1 HTS = activators of MITF-driven TRPM1 promoter reporter, primary screen, cell-based, SK-MEL-5, luciferase, single point | SK-MEL-5 TRPM1-promoter luciferase, 24 h; % of positive control, neutral wells = 0 | activation, % at 12.5 µM | 300,000 tested, 0.75% active;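 active = mean activation of at least 80% with every replicate also reaching 80%; inconclusive = mean reaches 80% but some replicate falls short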;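 note: 0% = neutral control wells and 100% = parthenolide positive control wells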
Wnt act = Wnt/beta-catenin pathway activators, primary screen, cell-based, plate reader, single point. activation, % at 9.35 µM. 300,000 tested, 1.2% active. Wnt/beta-catenin reporter cell assay, activator; in the data active = activation above about 30%, passing the limit was not always enough; inconclusive = no clear call, values can overlap the other calls;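 note: 0% = neutral control wells and 100% = positive control wells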
Yeast UUG start = modulators of yeast start codon fidelity, primary screen, whole organism, S. cerevisiae, single point, plate reader; S. cerevisiae UUG-firefly luciferase reporter, luminescence/redox ratio; activity score, % at 18.7 µM; 0.13% of 350,000 active; AID 602363, 2012;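 active = replicate mean at a twofold rise or more, about +100% in these data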;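 also: firefly luciferase made from a UUG start codon reports start codon fidelity; reporter light over untreated wells divided by growth signal over untreated wells; some hits fall short of that in this replicate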
esBAF inh = Bmi1 luciferase reporter increase in mESCs, primary screen, esBAF inhibitor project, mouse ES cells, Bmi1 luciferase knock-in, single point; 24 h; 100% = twice the neutral-well signal; reporter increase, % at 12.5 µM; 350,000 tested, 2% active; in the data active = activation above about 40%; inconclusive = no clear call, values can overlap the other calls;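 note: 0% = median of the plate's neutral control wells and 100% = double that signal; a rise in the Bmi1 reporter signal indicates esBAF inhibition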
The depositor's hits bear a star; ? = inconclusive; · = no result; [ ] = remark or other dose. An excerpt weighted towards active compounds, which were near 2.8% of everything screened.

| SMILES | miR-122 sensor | PglD inh | MITF TRPM1 HTS | Wnt act | Yeast UUG start | esBAF inh |
| --- | --- | --- | --- | --- | --- | --- |
| O=C(c1ccco1)N1CCN(c2ccc(N3CCCCC3)nn2)CC1 | -0.7 | 4.9 | 99.4* | 31.4* | -13.3 | ? |
| O=C(Nc1ccc2c(c1)Cc1cc([N+](=O)[O-])ccc1-2)C(F)(F)F | -6.9 | -2.9 | · | 11.2 | 8.4 | 41.5* |
| COc1cc2c(cc1NC(=O)C(F)(F)F)-c1ccc(NC(=O)C(F)(F)F)cc1C2 | · | · | 31.4 | 5.9 | · | · |
| O=C(N[C@@H]1CC[C@@H](CCn2cc(-c3ccccn3)nn2)O[C@H]1CO)c1ccc(F)cc1 | · | 1.7 | · | · | -29.7 | 0.8 |
| CC12CCC(C(=O)Nc3nc4ccc(Br)cc4s3)(OC1=O)C2(C)C (centres undefined) | · | · | 44.1 | 53.3* | · | · |
| CC12CCC(C(=O)Nc3nccs3)(OC1=O)C2(C)C (centres undefined) | · | · | · | -4.8 | · | · |
| CNc1ccc(/C=C(\C#N)c2ccccn2)cc1[N+](=O)[O-] | -2.5 | -1.1 | ? | 13.8 | -13.4 | 74.0* |
| N#C/C(=C\c1ccc(Cl)c([N+](=O)[O-])c1)c1ccccn1 | · | · | 0.0 | -0.8 | · | · |
| CO[C@H]1CC[C@H]2CCN(C)C(=O)C[C@@H](c3ccccc3)CN(C)C(=O)c3cc(C#N)ccc3OC[C@H]1O2 | · | -1.1 | · | · | · | -2.0 |
| CCn1c(O)c(C=NC2CCCC2)sc1=S | 1.2 | -3.2 | 35.6 | 18.5 | 0.1 | 44.6* |
| CCn1c(O)c(/C=N/n2cnnc2)sc1=S | -1.4 | -1.6 | 0.7 | · | -3.0 | -8.2 |
| CC=Cc1ccc2n(c1=O)C[C@H]1[C@H](CO)[C@@H](C(=O)NCc3ccc(F)cc3)N(Cc3cncnc3)[C@@H]21 (mixture of isomers) | · | -6.6 | · | · | · | 0.2 |
| O=C(NC1CC1)c1cc2c(s1)-c1ccccc1OC2 | -1.6 | 0.0 | 20.4 | 11.2 | -6.9 | 45.1* |
| O=C(NCc1cccs1)c1cc2c(s1)-c1ccccc1OC2 | 6.2 | -1.6 | · | -1.3 | -13.2 | 67.8* |
| CNC[C@H]1OCCCC[C@H](C)Oc2ccc(NS(C)(=O)=O)cc2C(=O)N([C@@H](C)CO)C[C@@H]1C | 1.0[16.7 µM] | 3.3 | · | · | -8.3 | 0.7 |
| C[C@@H]1CCCCO[C@@H](CN(C)C(=O)C2CCCCC2)[C@@H](C)CN([C@@H](C)CO)C(=O)c2cc(NC(=O)Nc3ccc(C(F)(F)F)cc3)ccc2O1 | -8.9[16.7 µM] | -5.4 | · | · | 0.2 | -8.6 |
| CN1CCN(C(=O)C[C@@H]2C[C@@H]3c4cc(NC(=O)Nc5ccccc5)ccc4O[C@@H]3[C@H](CO)O2)CC1 | -0.7[16.7 µM] | 17.6 | · | · | -0.1 | 6.2 |
| COc1ccccc1/C=C/C=N/NC(=O)c1ccccn1 | · | · | 96.5* | 19.0 | · | · |
| C/C(=N/OCc1ccc(Br)cc1)c1ccccn1 | -4.3 | · | 117.0* | 18.5 | · | 5.5 |
| C/C(=N\OC(=O)c1ccc(Br)cc1)c1ccccn1 | · | · | -1.1 | -2.0 | · | · |
| COc1ccc(-c2cc(=O)c3cc(C)ccc3[nH]2)cc1 | · | 6.5 | 107.2* | 45.0* | -1.8 | 3.9 |
| COc1ccc(S(=O)(=O)Nc2ccc3c(c2)C(=O)N([C@H](C)CO)C[C@@H](C)[C@H](CN(C)C)O3)cc1 | -2.8[16.7 µM] | -1.1 | · | · | -2.0 | 2.2 |
| CC(=O)Nc1cccc(C)c1 | -1.7 | -4.0 | 1.5 | 3.5 | -7.3 | 3.5 |
| CC(=O)Nc1ccc2c(c1)C(=Nc1cccc(C)c1)c1ccccc1-2 | 4.8 | · | 8.0 | 34.3* | · | 18.2 |
| CC(C)NC(=O)N[C@H]1CC[C@@H](CCNC(=O)C2CCOCC2)O[C@H]1CO | -1.7[16.7 µM] | -1.0 | · | · | -19.0 | 4.3 |
| COc1ccc(NC(=O)Nc2ccc3c(c2)CC(=O)N([C@H](C)CO)C[C@H](C)[C@@H](CN(C)C(=O)Nc2ccc(C(F)(F)F)cc2)O3)cc1 | -4.7[16.7 µM] | 0.8 | · | · | 1.5 | 3.3 |
| COc1ccc(NC(=O)Nc2ccc3c(c2)CC(=O)N([C@H](C)CO)C[C@H](C)[C@@H](CN(C)C(=O)NC(C)C)O3)cc1 | 0.5[16.7 µM] | 1.8 | · | · | 5.8 | -0.9 |
| CC(C)NC(=O)Nc1ccc2c(c1)CC(=O)N([C@H](C)CO)C[C@@H](C)[C@@H](CN(C)Cc1ccc(Oc3ccccc3)cc1)O2 | 96.6*[16.7 µM] | 1.5 | · | · | 40.7 | -14.8 |
| COc1ccc(NC(=O)N(C)C[C@H]2Oc3ccc(NC(=O)Nc4ccc(C(F)(F)F)cc4)cc3CC(=O)N([C@@H](C)CO)C[C@H]2C)cc1 | 200.8*[16.7 µM] | -1.5 | · | · | -7.7 | -8.9 |
| COc1ccc(NC(=O)Nc2ccc3c(c2)CC(=O)N([C@@H](C)CO)C[C@@H](C)[C@H](CN(C)C(=O)NC(C)C)O3)cc1 | 101.0*[16.7 µM] | 5.4 | · | · | 38.7 | -4.5 |
| C[C@H](CO)N1C[C@H](C)[C@@H](CN(C)S(C)(=O)=O)Oc2ccc(NC(=O)Cc3ccccc3)cc2CC1=O | 0.4[16.7 µM] | 0.8 | · | · | -0.5 | -2.6 |
| C[C@@H]1CN([C@@H](C)CO)C(=O)Cc2cc(NC(=O)Nc3ccc4c(c3)OCO4)ccc2O[C@@H]1CN(C)S(=O)(=O)c1cccs1 | -2.3[16.7 µM] | -1.8 | · | · | -7.7 | 5.9 |
| CSc1ccccc1NC(=O)c1noc2c1CCC2 | 1.8 | -9.3 | 19.3 | -2.6 | -20.7 | 47.7* |
| CCc1ccc(NC(=O)c2noc3c2CCC3)cc1 | 4.8 | · | · | 2.8 | -71.4 | 72.9* |
| Cc1ccc(O)c(NC(=O)c2noc3c2CCCCC3)c1 | -2.4 | 4.5 | 25.2 | 26.6 | 20.4 | 50.5* |
| CCc1ccc(NC(=O)c2noc3c2CCCCC3)cc1 | -0.7 | 8.2 | 49.0 | · | -21.2 | 26.3 |
| COC(=O)c1ccccc1NC(=O)c1noc2c1CCC2 | · | -1.8 | 9.2 | · | -6.2 | 2.8 |
| Cc1ccc(NC(=O)c2noc3c2CCc2ccccc2-3)cc1 | -5.0 | -0.9 | · | 42.4* | -15.9 | 59.9* |
| CC(C)c1cn(CC[C@@H]2CC[C@@H](NC(=O)c3cccc(F)c3)[C@H](CO)O2)nn1 | -20.0[16.7 µM] | 0.4 | · | · | -6.4 | 1.7 |
| CCc1ccc(NC(=O)c2noc3c2CCc2ccccc2-3)cc1 | -2.0 | 0.3 | · | 32.9* | -6.8 | 29.0 |
| O=C(NCCc1ccccc1)c1noc2c1CCCCC2 | 6.5 | 1.5 | 106.6* | · | -22.7 | 49.7* |
| O=C(Nc1cccc(O)c1)c1noc2c1CCc1ccccc1-2 | -11.1 | -8.5 | 14.5 | · | -54.8 | -33.5 |
| O=C(NCc1ccccc1)c1noc2c1CCCC2 | 3.1 | -2.9 | 10.4 | · | -22.8 | 23.1 |
| CO[C@H]1CN(C)C(=O)c2ccc(NC(=O)C3CC3)cc2OC[C@H](C)NC[C@H]1C | · | 2.3 | · | · | -0.2 | 2.6 |
| C[C@H](CO)N1C[C@H](C)[C@@H](CN(C)C(=O)Nc2ccccc2)Oc2ccc(NS(=O)(=O)c3ccc(Cl)cc3)cc2C1=O | 2.8[16.7 µM] | -1.0 | · | · | -3.8 | -5.7 |
| COc1ccccc1C1=NC(c2ccc(C)cc2)N=C1C (centres undefined) | · | · | 45.9 | 52.0* | · | · |

Shown as a hit in MITF TRPM1 HTS, of those listed so far:
| SMILES | miR-122 sensor | PglD inh | MITF TRPM1 HTS | Wnt act | Yeast UUG start | esBAF inh |
| --- | --- | --- | --- | --- | --- | --- |
| O=C(c1ccco1)N1CCN(c2ccc(N3CCCCC3)nn2)CC1 | -0.7 | 4.9 | 99.4* | 31.4* | -13.3 | ? |
| COc1ccccc1/C=C/C=N/NC(=O)c1ccccn1 | · | · | 96.5* | 19.0 | · | · |
| C/C(=N/OCc1ccc(Br)cc1)c1ccccn1 | -4.3 | · | 117.0* | 18.5 | · | 5.5 |
| COc1ccc(-c2cc(=O)c3cc(C)ccc3[nH]2)cc1 | · | 6.5 | 107.2* | 45.0* | -1.8 | 3.9 |
| O=C(NCCc1ccccc1)c1noc2c1CCCCC2 | 6.5 | 1.5 | 106.6* | · | -22.7 | 49.7* |

Compound activity from PubChem BioAssay.
